Drawing on publication PMC7521688 (PLoS Pathogens, 2020), this text covers Kd for one molecule.

Sequences of proteins named here, by UniProt entry; tags and fusion partners are left off. Residues count along the entry.
UniProt O83732, 97-237: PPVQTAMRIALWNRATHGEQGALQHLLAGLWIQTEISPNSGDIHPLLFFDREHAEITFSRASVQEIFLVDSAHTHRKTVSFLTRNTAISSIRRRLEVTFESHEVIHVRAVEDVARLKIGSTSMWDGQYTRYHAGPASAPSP

Structures are written as SMILES.

In the test the target is T1, TP0751^97-237 (C-terminal lipocalin domain of TP0751) (Treponema pallidum, UniProt O83732).
T1 construct: gene TP_0751
Briefly: biochemical.

The term Kd denotes a measure of binding affinity in units of concentration. Turning to `C=CC1=C(C)C2=Cc3c(C=C)c(C)c4[n]3[Fe]([Cl])[n]3c(c(C)c(CCC(=O)O)c3=CC3=NC(=C4)C(C)=C3CCC(=O)O)=CC1=N2` [heme], the Kd came out at 11.7 ± 2.2 µM.
